Measured values from patent publication US9139523B2, “5-HT2B receptor antagonists” (Janssen Pharmaceutica, NV, priority 2010, dated 2015).

Sequences of proteins named here, by UniProt entry; tags and fusion partners are left off. A change or cut given only in a name is not applied to a line headed by its entry.
UniProt Q12809: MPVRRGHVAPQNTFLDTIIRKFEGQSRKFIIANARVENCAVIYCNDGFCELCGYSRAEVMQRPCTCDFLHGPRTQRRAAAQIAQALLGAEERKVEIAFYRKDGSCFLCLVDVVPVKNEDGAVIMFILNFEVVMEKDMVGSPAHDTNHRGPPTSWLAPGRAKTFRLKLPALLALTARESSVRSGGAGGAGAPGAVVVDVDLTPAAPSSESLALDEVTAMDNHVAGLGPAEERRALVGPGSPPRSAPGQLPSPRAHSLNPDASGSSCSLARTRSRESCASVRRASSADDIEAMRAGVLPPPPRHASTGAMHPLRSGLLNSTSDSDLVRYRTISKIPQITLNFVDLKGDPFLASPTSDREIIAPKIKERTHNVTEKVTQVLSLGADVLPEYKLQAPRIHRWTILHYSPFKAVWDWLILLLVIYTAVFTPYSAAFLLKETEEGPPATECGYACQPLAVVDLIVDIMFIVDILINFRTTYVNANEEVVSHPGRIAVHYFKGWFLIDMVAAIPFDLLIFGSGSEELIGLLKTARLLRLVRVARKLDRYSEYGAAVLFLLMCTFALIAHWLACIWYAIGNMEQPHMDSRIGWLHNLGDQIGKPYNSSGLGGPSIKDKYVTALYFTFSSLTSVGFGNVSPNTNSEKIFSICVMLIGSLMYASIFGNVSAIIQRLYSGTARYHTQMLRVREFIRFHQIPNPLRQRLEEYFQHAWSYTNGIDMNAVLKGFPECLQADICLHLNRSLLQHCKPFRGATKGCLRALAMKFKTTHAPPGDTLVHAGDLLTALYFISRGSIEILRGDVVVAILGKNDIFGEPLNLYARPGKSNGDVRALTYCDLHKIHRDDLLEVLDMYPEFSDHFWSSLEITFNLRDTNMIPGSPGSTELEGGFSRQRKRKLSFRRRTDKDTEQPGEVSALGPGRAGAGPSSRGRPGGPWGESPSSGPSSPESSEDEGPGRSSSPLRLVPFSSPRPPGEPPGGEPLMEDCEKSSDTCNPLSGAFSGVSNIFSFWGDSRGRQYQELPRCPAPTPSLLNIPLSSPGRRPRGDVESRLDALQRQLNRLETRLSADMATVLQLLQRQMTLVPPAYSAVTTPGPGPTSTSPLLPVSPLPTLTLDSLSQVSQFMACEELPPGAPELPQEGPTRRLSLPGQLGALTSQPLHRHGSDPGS

Biological target: T1, hERG potassium channel (Homo sapiens, UniProt Q12809)
T1 construct: expressed in transfected cells; host or cells: HEK293
Assay: hERG-transfected HEK293 cells using a Patch Express apparatus
Assay type: cell-based
Conditions: 5 min, pH 7.4
Experimental: Experiments were performed using HEK293 cells stably expressing the hERG potassium channel. Cells were grown at 37° C. and 5% CO2 in culture flasks in MEM Medium supplemented with 10% heat-inactivated fetal bovine serum, 1% L-Glutamine-Penicillin-Streptomycin-solution, 1% non-essential amino acids (100×), 1% sodium pyruvate (100 mM) and 0.8% Geneticin (50 mg/ml). Before use the cells were subcultured in MEM medium in the absence of 5 ml L-Glutamine-Penicillin-Streptomycin. For use in the automated patch-clamp system PatchXpress 7000A (Axon Instruments) cells were harvested to obtain cell suspension of single cells. […]
Patch-clamp experiments were performed in the voltage-clamp mode and whole-cell currents were recorded with an automated patch-clamp assay utilizing the PatchXpress 7000A system (Axon Instruments). Current signals were amplified and digitized by a Multiclamp amplifier, stored and analyzed by using the PatchXpress, DataXpress software and Igor 5.0 (Wavemetrics).
The holding potential was −80 mV. The hERG current (K+-selective outward current) was determined as the maximal tail current at −40 mV after a 2 second depolarization to +60 mV. […]
Each concentration of the test substance was applied twice. The effect of each concentration was determined after 5 min as an average current of 3 sequential voltage pulses. […]

`COc1cc(N)c(Cl)cc1C(=O)NC1CCN(CCCOc2ccc(F)cc2)CC1OC` (centres unmarked) [Cisapride, reference compound] was tested, and the “% block of the hERG channel” value (100 nM) was 80 (7) % and the “% block of the hERG channel” value (300 nM) was 95 (15) %.
